Source: patent US11173145B2, “Compounds useful as inhibitors of indoleamine 2,3-dioxygenase and/or tryptophan dioxygenase” (Board of Regents, The University of Texas System, priority 2017, dated 2021)

Chains of the proteins cited; added tags and fusions are not shown.
UniProt P14902, whole entry: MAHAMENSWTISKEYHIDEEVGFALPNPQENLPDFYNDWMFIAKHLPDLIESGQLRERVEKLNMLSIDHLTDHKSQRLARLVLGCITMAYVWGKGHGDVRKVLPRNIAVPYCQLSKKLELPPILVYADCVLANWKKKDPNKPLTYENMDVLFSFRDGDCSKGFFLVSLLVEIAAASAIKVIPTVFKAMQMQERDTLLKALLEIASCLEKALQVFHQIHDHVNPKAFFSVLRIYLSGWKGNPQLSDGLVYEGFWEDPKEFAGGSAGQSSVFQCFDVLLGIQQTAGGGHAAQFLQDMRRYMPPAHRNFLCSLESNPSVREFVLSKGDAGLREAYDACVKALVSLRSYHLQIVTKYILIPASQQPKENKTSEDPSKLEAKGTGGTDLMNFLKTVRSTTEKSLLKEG
UniProt P28776, whole entry: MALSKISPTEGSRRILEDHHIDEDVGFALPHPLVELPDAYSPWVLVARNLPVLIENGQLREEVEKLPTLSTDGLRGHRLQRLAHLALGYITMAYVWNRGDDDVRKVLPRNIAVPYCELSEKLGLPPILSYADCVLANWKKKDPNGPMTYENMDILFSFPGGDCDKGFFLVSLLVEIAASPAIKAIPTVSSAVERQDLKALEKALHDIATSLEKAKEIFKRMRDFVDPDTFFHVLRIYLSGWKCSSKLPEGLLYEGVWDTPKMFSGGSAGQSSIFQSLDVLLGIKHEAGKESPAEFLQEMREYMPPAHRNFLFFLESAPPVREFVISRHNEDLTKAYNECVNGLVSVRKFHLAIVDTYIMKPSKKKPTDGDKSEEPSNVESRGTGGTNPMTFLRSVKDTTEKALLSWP

Tests used:
[1] = target: IDO1 (Homo sapiens, UniProt P14902); test: IDO1 cell-based assay (HeLa cells, IFNgamma-induced, N-formylkynurenine/L-tryptophan by RFMS); details: 10 ng/mL IFNgamma, 24 hours
[2] = target: mouse IDO1 (Mus musculus, UniProt P28776); test: Mouse IDO1 cell-based assay (PANC02 cells, mouse IFNgamma-induced, N-formylkynurenine/L-tryptophan by RFMS); details: 30 ng/mL mouse IFNgamma, 48 hours

Row | SMILES | IC50 [1] | IC50 [2]
1 | CCC(NC(=O)c1ccc(Cl)cc1)[C@H]1[C@@H]2C[C@@H](C(C(=O)NC)c3ccccc3)C[C@@H]21 (relative stereo) [Compound 231] | > 5 µM | 2 to 5 µM
2 | Fc1ccc2nc(C(F)(F)F)cc(OC3CC4C(CCOc5ccc(Cl)cc5)C4C3)c2c1 (centres unmarked) | > 5 µM | 
3 | CCC(NC(=O)c1ccc(Cl)cc1)[C@H]1[C@@H]2C[C@@H](C(C(=O)NC)c3ccccc3)C[C@@H]21 (relative stereo) [Compound 230] | 2 to 5 µM | 0.5 to 2 µM
